Data set [1] is described as follows: Stability in simulated intestinal fluid (FaSSIF with porcine pancreatin), LC-MS. Type of data set: in vitro ADME. To be noted: for SIF Half life, percentage in parentheses below the half-life: meaning of % not defined in the table.
Data set [2] can be described thus: Stability in simulated gastric fluid (SGF with pepsin, pH 1.2), LC-MS. Type of data set: in vitro ADME. The procedure:
SGF was prepared by dissolving 320 mg Pepsin (Sigma®, P6887, from Porcine Stomach Mucosa) in 100 mL Blank SGF and stirred at room temperature for 30 minutes. The solution was filtered through 0.45 μm membrane and aliquot and stored at −20° C.
Experimental compounds of interest (at a concentration of 20 μM) were incubated with pre-warmed SGF at 37° C. […] Quenched samples were stored at 4° C. until the end of the experiment and centrifuged at 4,000 rpm for 10 minutes. The supernatant were diluted 1:1 with deionized water and analyzed using LC-MS. Percentage remaining at each time point was calculated based on the peak area ratio (analyte over internal standard) relative to the initial level at time zero. Half-lives were calculated by fitting to a first-order exponential decay equation using GraphPad.

Turning to “Isovaleric acid-DTHFPCIKF-Lys[PEG11-Palm]-PRSK-[SAR]-CK-NH2 [compound 2]”, in data set [1], the “SIF Half life” value is less than 15 min and the “SIF Half life, percentage in parentheses below the half-life” value is listed as “(1%)”. In addition, the “SGF Half life” value in data set [2] was 26 min.

In the case of “Isovaleric acid-DTHFPCIKF-Lys[PEG11-Palm]-PRSKGCK-NH2 [compound 1]”, in data set [1], the “SIF Half life” value was less than 15 min and the “SIF Half life, percentage in parentheses below the half-life” value is “(1%)”. The “SGF Half life” value in data set [2] is given as less than 15 min.

Source of the values: patent publication US12234300B2 (priority 2018, dated 2025).
